Results as given in patent publication US20030215462A1, “Use of UGT inhibitors to increase bioavailability” (priority 2001, published 2003).

Legend:
UGT2B7 = target: T1, UGT2B7 (Homo sapiens, UniProt P16662); experiment: Substrate glucuronidation by recombinant UGT2B7; conditions: UGT2B7 Supersomes; 2ME2 50 μM
T1 sequence (P16662 24-529): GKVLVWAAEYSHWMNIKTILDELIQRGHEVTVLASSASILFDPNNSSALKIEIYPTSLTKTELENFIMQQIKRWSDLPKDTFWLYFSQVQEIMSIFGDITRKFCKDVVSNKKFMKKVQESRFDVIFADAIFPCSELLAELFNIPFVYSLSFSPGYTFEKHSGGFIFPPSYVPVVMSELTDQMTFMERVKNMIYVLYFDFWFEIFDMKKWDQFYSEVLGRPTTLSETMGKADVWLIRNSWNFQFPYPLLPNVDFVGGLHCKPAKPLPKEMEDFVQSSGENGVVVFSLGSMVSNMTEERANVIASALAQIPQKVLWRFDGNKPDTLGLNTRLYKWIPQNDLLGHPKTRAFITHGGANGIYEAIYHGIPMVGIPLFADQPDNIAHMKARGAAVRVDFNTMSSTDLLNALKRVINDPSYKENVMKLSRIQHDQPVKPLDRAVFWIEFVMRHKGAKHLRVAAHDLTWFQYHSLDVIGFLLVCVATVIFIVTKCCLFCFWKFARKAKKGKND

UGT1A1 = target: T2, UGT1A1 (Homo sapiens, UniProt P22309); experiment: Substrate glucuronidation by recombinant UGT1A1; conditions: 2ME2 50 μM
T2 sequence (P22309 26-533): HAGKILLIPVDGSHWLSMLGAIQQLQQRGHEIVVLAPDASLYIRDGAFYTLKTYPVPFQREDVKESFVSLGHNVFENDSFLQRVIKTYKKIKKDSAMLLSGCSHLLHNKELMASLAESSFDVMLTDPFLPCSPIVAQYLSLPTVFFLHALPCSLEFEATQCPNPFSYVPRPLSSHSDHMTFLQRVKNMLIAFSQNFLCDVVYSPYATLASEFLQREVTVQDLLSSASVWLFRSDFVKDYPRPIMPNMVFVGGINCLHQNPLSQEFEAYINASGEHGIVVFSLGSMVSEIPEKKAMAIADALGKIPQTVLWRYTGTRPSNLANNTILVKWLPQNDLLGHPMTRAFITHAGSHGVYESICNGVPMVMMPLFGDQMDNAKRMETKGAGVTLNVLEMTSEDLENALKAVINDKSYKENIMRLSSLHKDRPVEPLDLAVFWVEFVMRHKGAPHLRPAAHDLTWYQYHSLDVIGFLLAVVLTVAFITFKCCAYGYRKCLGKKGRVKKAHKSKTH

SMILES: COc1cc2c(cc1O)CC[C@@H]1[C@@H]2CC[C@]2(C)[C@@H](O)CC[C@@H]12 [2ME2, 2-Methoxyestradiol]
- relative metabolite level MG1 (UGT2B7): <LOQ
- relative metabolite level MG2 (UGT2B7): 5.9 ± 0.2
- rate of 2ME2 loss (UGT1A1; UGT1A1): 1406 ± 156 pmol/min/mg
- relative metabolite level MG1 (UGT1A1; UGT1A1 Bacculosomes): 46 ± 1
- relative metabolite level MG2 (UGT1A1; UGT1A1 Bacculosomes): <LOQ
- ratio MG1/MG2 (UGT1A1; UGT1A1 Supersomes): 68
- relative metabolite level MG1 (UGT1A1; UGT1A1 Supersomes): 90 ± 5
- relative metabolite level MG2 (UGT1A1; UGT1A1 Supersomes): 1.3 ± 0.1
